Measured affinities in a library of Ab-14 light chain variants

Source: Engelhart et al. 2022 (doi:10.1038/s41597-022-01779-4), MIT Lincoln Laboratory and A-Alpha Bio; data file from the FLAb repository.

All variants were tested on one target, the spike HR2 peptide PDVDLGDISGINAS (SARS-CoV-2).

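The parent was found by panning a naive human phage display library on the peptide. In library AAYL50, one, two or three CDR residues were substituted; doubles and triples were drawn at random. AlphaSeq pools MATa yeast showing the antibodies with MATalpha yeast showing the peptide. Binding brings cells together so that they mate, and sequencing counts the barcode pairs among the diploids. Read counts were normalised to the haploid input and turned into Kd by a linear fit to BCL2-family pairs of known affinity, for each replicate. Each pool was mated in three replicate cultures.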

Each scFv is VH, a (GGGGS)3 linker, VL, as in the parent Ab-14, and differs from it in the CDRs of the light chain only.
VH: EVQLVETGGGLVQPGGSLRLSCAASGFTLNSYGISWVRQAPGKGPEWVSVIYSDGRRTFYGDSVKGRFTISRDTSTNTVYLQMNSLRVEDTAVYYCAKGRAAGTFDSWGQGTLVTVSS
VL: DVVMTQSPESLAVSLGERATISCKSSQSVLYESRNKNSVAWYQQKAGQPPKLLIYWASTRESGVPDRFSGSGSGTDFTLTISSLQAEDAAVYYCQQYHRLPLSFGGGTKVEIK

Substitutions are numbered in sequence along the VL above, starting at 1 (not Kabat). Only single mutants are listed, position by position. Values are apparent Kd, the geometric mean of the replicates that gave a signal; lower means stronger binding. "no signal" means that the variant was in the library but no mating with the target was seen in any replicate; the authors take this as a sign of poor binding, and no number exists. Nonspecific signal, from three strains lacking the peptide, appeared in 18% of pairings of library AAYL50, centred on 15 µM (5% of these signals below 970 nM); values are not corrected for it.

| changes | Kd (apparent) | seen in |
|---|---|---|
| Y31S | no signal | 0 of 3 |
| Y31A | 7.7 nM | 3 of 3 |
| Y31W | 11 nM | 3 of 3 |
| Y31M | 53 nM | 3 of 3 |
| Y31V | 2.4 nM | 3 of 3 |
| Y31C | 88 nM | 3 of 3 |
| Y31N | 2.1 nM | 3 of 3 |
| Y31E | 2.3 nM | 3 of 3 |
| Y31G | no signal | 0 of 3 |
| Y31L | 8.4 nM | 3 of 3 |
| Y31T | 4.6 µM | 3 of 3 |
| Y31H | no signal | 0 of 3 |
| E32I | 2.2 µM | 3 of 3 |
| E32A | 8.8 nM | 3 of 3 |
| E32D | no signal | 0 of 3 |
| E32H | 19 nM | 3 of 3 |
| E32G | 7.7 nM | 3 of 3 |
| E32F | 28 nM | 3 of 3 |
| E32Y | 12 nM | 3 of 3 |
| E32Q | 15 nM | 3 of 3 |
| E32M | 60 nM | 3 of 3 |
| E32N | 66 nM | 3 of 3 |
| E32R | 130 nM | 3 of 3 |
| E32W | 18 nM | 3 of 3 |
| E32P | 17 nM | 3 of 3 |
| E32V | 680 nM | 3 of 3 |
| E32T | 73 nM | 3 of 3 |
| E32K | 670 nM | 3 of 3 |
| E32L | 62 nM | 3 of 3 |
| S33L | 550 nM | 3 of 3 |
| S33M | 27 nM | 3 of 3 |
| S33V | 160 nM | 3 of 3 |
| S33R | 65 nM | 3 of 3 |
| S33C | no signal | 0 of 3 |
| S33I | 28 µM | 3 of 3 |
| S33A | 6.0 nM | 3 of 3 |
| S33N | 1.3 µM | 2 of 3 |
| S33Y | no signal | 0 of 3 |
| S33Q | 20 nM | 3 of 3 |
| S33K | 89 nM | 3 of 3 |
| S33T | 9.8 nM | 3 of 3 |
| S33H | 47 nM | 3 of 3 |
| S33G | 7.8 nM | 3 of 3 |
| S33F | 11 nM | 3 of 3 |
| S33P | 910 nM | 3 of 3 |
| S33D | 2.5 nM | 3 of 3 |
| S33E | 110 nM | 3 of 3 |
| R34M | 1.6 nM | 3 of 3 |
| R34F | 2.4 nM | 3 of 3 |
| R34L | 18 nM | 3 of 3 |
| R34I | 4.4 nM | 3 of 3 |
| R34T | 2.1 nM | 3 of 3 |
| R34P | 3.3 nM | 3 of 3 |
| R34Y | no signal | 0 of 3 |
| R34N | 1.5 nM | 3 of 3 |
| R34A | 5.9 nM | 3 of 3 |
| R34W | 6.2 nM | 3 of 3 |
| R34D | 2.3 nM | 3 of 3 |
| R34G | 1.6 nM | 3 of 3 |
| R34C | 86 nM | 3 of 3 |
| R34S | 3.5 nM | 3 of 3 |
| R34K | 18 nM | 3 of 3 |
| R34H | 7.0 nM | 3 of 3 |
| R34V | 3.6 nM | 3 of 3 |
| R34E | 2.2 nM | 3 of 3 |
| N35E | no signal | 0 of 3 |
| N35L | 10 nM | 3 of 3 |
| N35S | 2.3 nM | 3 of 3 |
| N35Q | 6.3 nM | 3 of 3 |

Excerpt, the first 4 entries:

{"changes": "Y31S", "Kd (apparent)": "no signal", "seen in": "0 of 3"}
{"changes": "Y31A", "Kd (apparent)": "7.7 nM", "seen in": "3 of 3"}
{"changes": "Y31W", "Kd (apparent)": "11 nM", "seen in": "3 of 3"}
{"changes": "Y31M", "Kd (apparent)": "53 nM", "seen in": "3 of 3"}